The numbers were not newly measured in paper PMC6738096 (British Journal of Cancer, 2019), which cites them from elsewhere.

Data set [1] concerns ALK-positive NSCLC. More on the design: method as in not given. Particulars: ALK pre-treated setting, post crizotinib; ref not given; cited from earlier work.
For data set [2], the system named is ALK-positive NSCLC. Particulars: cited from earlier work.

For the compound `CCc1cc2c(cc1N1CCC(N3CCOCC3)CC1)C(C)(C)c1[nH]c3cc(C#N)ccc3c1C2=O` [alectinib], in data set [1], the Objective response rate was 38–48%.

With `C[C@@H](Oc1cc(-c2cnn(C3CCNCC3)c2)cnc1N)c1c(Cl)ccc(F)c1Cl` [crizotinib], in data set [2] (ALK-positive NSCLC, versus chemotherapy 7.0), the Median progression-free survival is reported as 10.9 months. For the same compound, the Response rate in data set [2] (ALK-positive NSCLC, versus chemotherapy 45%) is listed as 74%. The “Disease progression occurring within” value in data set [2] (acquired resistance in treated patients) was ~ 1 year.
